Results reported in article PMC5520972 (Cancer chemotherapy and pharmacology, 2017).

Settings: day 8

CS(=O)(=O)c1ccc(C(=O)Nc2ccc(Cl)c(-c3ccccn3)c2)c(Cl)c1 [vismodegib]
Correlation of vismodegib Css with AST or total bilirubin values: not correlated
